Measured values from patent US10407428B2, “Spiro-isoquinoline-1,4′-piperidine compounds having multimodal activity against pain” (ESTEVE PHARMACEUTICALS, S.A., priority 2014, dated 2019).

Test system: human σ1 receptor and human μ-opioid receptor
Test: Human σ1 receptor radioligand assay and human μ-opioid receptor radioligand assay (μ and σ1 dual binding)
Set-up: key to the marks not given beside the values
Settings: combined class for Ki-μ ([3H]-DAMGO, CHO-K1 membranes) and Ki-σ1 ([3H](+)-pentazocine, HEK-293 membranes)

Row | SMILES | μ and σ1 dual binding
1 | CC(=O)N1Cc2ccccc2C12CCN(CCc1ccccc1)CC2 | ++
2 | CC(=O)N1CCc2ccccc2C12CCN(CCN(C)C(=O)c1ccccc1)CC2 | ++
3 | CC(=O)N1CCc2ccccc2C12CCN(CCc1ccccn1)CC2 | ++
4 | O=C(CO)N1CCc2ccccc2C12CCN(CCc1ccccc1)CC2 | ++
5 | CC(=O)Nc1cc(CCN2CCC3(CC2)c2ccccc2CCN3C(C)=O)ccn1 | ++
6 | CCNC(=O)N1CCc2ccccc2C12CCN(CCc1ccncc1)CC2 | ++
7 | CC(=O)N1CCc2ccccc2C12CCN(CC(O)c1ccccc1)CC2 (centres unmarked) | ++
8 | CC(=O)N1CCc2ccccc2C12CCN(CCc1ccc(C(F)(F)F)nc1)CC2 | ++
